In patent US20210403542A1:

What was measured:
[1] = molecular target: BAN0805; assay: inhibition ELISA; concentration of α-synuclein protofibril (as monomer equivalents) varied against BAN0805; coated antigen not given
[2] = molecular target: BAN0805; assay: inhibition ELISA; concentration of α-synuclein monomer varied against BAN0805; coated antigen not given
[3] = molecular target: BAN0805; assay: inhibition ELISA; concentration of α-synuclein monomer varied against BAN0805 (hu47-IgG4); coated antigen not named in the filing [table under the graph]

IC50 (read off the curve) [1] [nM] | IC50 (read off the curve) [2] [nM] | IC50 [3] [nM] | Substance
1 | – | – | human α-synuclein protofibril (from UniProt P37840 1-140)
– | 1000 | 1310 | α-synuclein monomer (from UniProt P37840 1-140)
